Series [1] concerns the target cytochrome P450 2C9-isoenzyme (Homo sapiens (Human), UniProt P11712). Description: Inhibition of CYP-2C9 (diclofenac hydroxylation, human liver microsomes). The format is in vitro ADME. As to conditions: read-out: IC50 (Cyp 2C9), diclofenac 10 μM, 37° C.
Series [2] addresses human GPR40 receptor (Homo sapiens (Human), UniProt O14842). Nature of the series: IP1 accumulation measurements using the IPOne assay system. As to conditions: 1321N1 cells stably expressing human GPR40, 1 h stimulation. The procedure:
IP1 accumulation measurements using the IPOne assay system—1321N1 cells stably expressing human GPR40 receptor (Euroscreen, Belgium) are seeded 24 h before the assay in white 384-well plates in culture medium containing 10% FCS, 1% Na-Pyruvate and 400 μg/mL G418. IP1 is assayed according to the manufacturer's description (Cisbio Bioassays, France). In brief, the assay is started by substitution of the culture medium by stimulation buffer (Hepes 10 mM, CaCl2 1 mM, MgCl2 0.5 mM, KCl 4.2 mM, NaCl 146 mM, glucose 5.5 mM and LiCl 50 mM, pH 7.4). Cells are stimulated for 1 h at 37° C., 5% CO2 by addition of the compounds that are diluted in stimulation buffer containing LiCl. Assays are stopped by adding HTRF-conjugates (IP1-d2 and Anti-IP1 cryptate Tb) and lysis buffer, provided by the manufacturer. After an incubation time of 1 h at room temperature plates are measured using an EnVision™, Perkin Elmer. The obtained fluorescence ratios at 665/615 […] are then used to calculate the pEC50 values using Assay Explorer 3.3 Software (Accelrys, Inc.) by interpolation using an IP1 reference curve and subsequent sigmoidal curve fitting allowing for a variable hill slope.

Amino acid sequences for entries named in this document (tags omitted).
UniProt P11712, whole entry: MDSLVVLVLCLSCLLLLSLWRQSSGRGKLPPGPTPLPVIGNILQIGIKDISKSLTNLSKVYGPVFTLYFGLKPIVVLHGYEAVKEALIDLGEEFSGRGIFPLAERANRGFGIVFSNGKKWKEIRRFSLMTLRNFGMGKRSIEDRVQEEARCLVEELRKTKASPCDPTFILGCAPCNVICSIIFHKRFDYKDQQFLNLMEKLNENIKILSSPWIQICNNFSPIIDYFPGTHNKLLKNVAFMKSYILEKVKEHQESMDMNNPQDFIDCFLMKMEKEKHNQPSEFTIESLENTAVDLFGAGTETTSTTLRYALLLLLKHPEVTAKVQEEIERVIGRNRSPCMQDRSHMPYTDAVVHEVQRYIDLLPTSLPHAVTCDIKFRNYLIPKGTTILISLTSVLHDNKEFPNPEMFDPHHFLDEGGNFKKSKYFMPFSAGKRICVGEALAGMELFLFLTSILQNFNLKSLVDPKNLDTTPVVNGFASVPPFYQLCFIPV
UniProt O14842, whole entry: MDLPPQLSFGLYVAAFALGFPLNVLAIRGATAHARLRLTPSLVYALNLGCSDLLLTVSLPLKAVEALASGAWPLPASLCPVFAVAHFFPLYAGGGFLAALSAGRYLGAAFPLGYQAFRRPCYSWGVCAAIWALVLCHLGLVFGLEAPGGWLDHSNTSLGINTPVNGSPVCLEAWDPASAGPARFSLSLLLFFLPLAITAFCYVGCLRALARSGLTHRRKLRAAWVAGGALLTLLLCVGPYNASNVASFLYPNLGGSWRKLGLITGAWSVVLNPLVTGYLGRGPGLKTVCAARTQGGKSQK
UniProt P10632, whole entry: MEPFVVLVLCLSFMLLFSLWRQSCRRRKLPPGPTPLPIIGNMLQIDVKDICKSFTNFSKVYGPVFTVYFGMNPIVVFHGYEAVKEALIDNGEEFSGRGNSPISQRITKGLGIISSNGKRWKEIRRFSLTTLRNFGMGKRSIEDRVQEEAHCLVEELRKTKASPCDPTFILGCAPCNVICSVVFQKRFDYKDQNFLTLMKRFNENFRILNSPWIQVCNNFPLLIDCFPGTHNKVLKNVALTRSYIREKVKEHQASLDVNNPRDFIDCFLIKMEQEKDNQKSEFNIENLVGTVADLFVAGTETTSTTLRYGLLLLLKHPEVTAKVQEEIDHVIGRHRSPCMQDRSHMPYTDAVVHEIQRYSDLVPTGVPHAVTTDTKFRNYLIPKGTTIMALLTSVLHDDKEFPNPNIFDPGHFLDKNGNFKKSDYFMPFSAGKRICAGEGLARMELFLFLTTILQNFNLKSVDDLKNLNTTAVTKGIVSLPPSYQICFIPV

Series [3] is described as follows: Chemical stability (degradation kinetics) in acidic aqueous media. As to conditions: pH value ca. 1.2 (acetonitrile/0.1 M aqueous HCl 2:3), 37° C.
For series [4], the target named is cytochrome P450 2C8-isoenzyme (Homo sapiens (Human), UniProt P10632). Nature of the series: Inhibition of CYP-2C8 (amodiaquine deethylation, human liver microsomes). As to conditions: read-out: IC50 (Cyp 2C8), amodiaquine 1 μM, 37° C. Format: in vitro ADME. A general note: Microsomes from liver hold many membrane-bound enzymes, among them those of drug oxidation.

Series [5] in a line: Aqueous solubility. The format is physicochemical. As to conditions: buffer pH 2.2, 24 h shaking, 2.5% DMSO. The procedure: Starting from a 10 mM DMSO stock solution aliquots are diluted with acetonitrile/water (1/1) or buffer, respectively. After 24 h of shaking, the solutions are filtrated and analyzed by LC-UV. The amount dissolved in buffer is compared to the amount in the acetonitrile solution.

A value given as a limit tells only on which side of the number the result lay.

For orientation: IC50 means the concentration that inhibits the measured activity by half. By EC50 is commonly meant the concentration giving half of the maximal effect. Read a high EC50 as weaker potency. As usually defined, the Solubility is how much of the substance goes into solution per volume. A lower Solubility goes with a poorly soluble substance.

On to `Cc1cc(-c2cc(=O)n(C)cn2)cc(C)c1-c1ccc(F)c2c1CC[C@H]2Nc1ccc([C@H]2C[C@@H]2C(=O)O)nc1`, for which the values for the IC50 in series [1] and in series [4] were over 50 µM and 40 µM, respectively. The molecule also registered an EC50 in series [2] of 0.005 µM. In addition, the “Amount of degradation after 2 h” value in series [3] was under 0.5%. For the same molecule, the “Solubility at pH value 2.2” value in series [5] was 111 μg/mL.

Values taken from patent US10125101B2, “Indanylaminopyridylcyclopropanecarboxylic acids, pharmaceutical compositions and uses thereof” (Boehringer Ingelheim International GmbH, priority 2016, dated 2018).
